Among the data in PubChem BioAssay AID588675 (Johns Hopkins Ion Channel Center, 2011) are outcome values, retold here.

Protein sequences, listed by entry. Tags and fused reporters are not part of them.
UniProt Q96LB2, whole entry: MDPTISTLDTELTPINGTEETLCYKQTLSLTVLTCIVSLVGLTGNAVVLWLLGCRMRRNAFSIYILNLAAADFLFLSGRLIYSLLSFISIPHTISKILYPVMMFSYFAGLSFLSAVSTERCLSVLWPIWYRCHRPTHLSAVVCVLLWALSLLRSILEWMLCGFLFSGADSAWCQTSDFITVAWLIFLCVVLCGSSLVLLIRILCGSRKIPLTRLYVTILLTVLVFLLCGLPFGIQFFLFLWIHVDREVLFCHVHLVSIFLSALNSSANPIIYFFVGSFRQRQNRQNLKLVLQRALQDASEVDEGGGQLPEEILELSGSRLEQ

This is a selection; strong and weak results do not stand in their true shares. Active and inactive are the calls of the source.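 How the source made its calls: active means plate-corrected calcium response at least 3 library SD above typical, normal starting fluorescence, not activating the receptor alone; inactive means the rest.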

The test addresses Mas-related G-protein coupled receptor member X1 (Homo sapiens) (UniProt Q96LB2). Put plainly: positive allosteric modulators of MrgX1, primary screen, HEK293 cells, Fluo-4 calcium flux (AID 588675).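 Further: compound read alongside a low EC10 to EC30 dose of BAM8-22 agonist.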 To be noted: MrgX1-HEK293, Fluo-4 calcium flux, FDSS, at 10 µM.
On to `CCOP(=O)(Nc1cccc2ccccc12)OCC`, for which the outcome was inactive.
As for `Cc1ccc(C)c(NP(C)(=O)Oc2ccccc2)c1` (stereo not drawn), the outcome was inactive.
Then `CCCOP(=S)(Nc1nc(N)cc(=O)[nH]1)OCCC`, with “inactive”.
As to `Cc1cc(C)cc(OP(C)(=O)Nc2ccccn2)c1` (stereo not drawn), the result was inactive.
With `CP(=O)(Nc1cccc(Br)c1)Oc1ccccc1` (stereo not drawn), the outcome was inactive.
`Nc1cccc2c([As](=O)(O)O)cccc12`: the outcome was inactive.
Then `Cc1ccc(NCCc2c([N+](=O)[O-])cc([N+](=O)[O-])cc2[N+](=O)[O-])cc1`, with “inactive”; and `CCOC(=O)c1ccc(NP(C)(=O)Oc2cc(C)cc(C)c2)cc1` (stereo not drawn), with “inactive”.
Take `Cc1cccc(OCC(=O)OC2CN3CCC2CC3)c1` (stereo not drawn): the result was inactive.
On to `O=[As](O)(c1cccc(O)c1)c1cccc(O)c1`, for which the result was inactive.
Then `Cc1cc(C)cc(OP(C)(=O)Nc2ccc(C)cc2C)c1` (stereo not drawn), with “inactive”; and `O=[As](O)(O)c1cccnc1`, with “inactive”.
Turning to `COc1cc(C(=O)NCC2(N3CCOCC3)CCCCC2)cc(Cl)c1OC(C)C`, the result was inactive.
For the molecule `CS(=O)(=O)c1ccc(Cl)c(NC(=O)COC(=O)C(O)(c2ccccc2)c2ccccc2)c1`, the outcome was inactive.
Then `COc1ccccc1OP(C)(=O)Nc1cccc(Br)c1` (stereo not drawn), with “inactive”; and `O=C(OC1CN2CCC1CC2)c1ccc(Cl)cc1` (stereo not drawn), with “inactive”; and `O=[N+]([O-])c1ccc2c(c1)nnn2O`, with “inactive”.
As to `CN(C)C(=O)c1cc([N+](=O)[O-])cc2c1-c1c(cc([N+](=O)[O-])cc1[N+](=O)[O-])C2=O`, the result was inactive.
As for `CC1=NCCc2c1[nH]c1ccccc21.O=[N+]([O-])c1cc([N+](=O)[O-])c(O)c([N+](=O)[O-])c1`, the result was inactive.
For `CN(C(=O)Cc1ccc(Cl)c(Cl)c1)[C@H]1CC[C@@]2(CCCO2)C[C@@H]1N1CCCC1`, the outcome was inactive.
Then `N#CCCN(C(=O)COC(=O)C(O)(c1ccccc1)c1ccccc1)c1ccc(F)cc1`, with “inactive”; and `CCOP1(=S)c2c(C)nn(CCC#N)c2N=C(c2ccc(F)cc2)N1C` (stereo not drawn), with “inactive”.
Then `CN(C(=O)Cc1ccccc1)[C@@H]1CC[C@]2(CCCO2)C[C@H]1N1CCCC1`, with “inactive”; and `NC(=O)Nc1ccc([As](=O)(O)O)cc1`, with “inactive”.
On to `O=C(O)COc1ccc([As](=O)(O)O)cc1[N+](=O)[O-]`, for which the outcome was inactive.
Then `Nc1ccccc1[As](=O)(O)c1ccccc1`, with “inactive”.
For the molecule `CS(=O)(=O)c1cc([N+](=O)[O-])c2no[n+]([O-])c2c1`, the outcome was inactive.
Consider `O=C(O)c1cccc(Nc2c([N+](=O)[O-])cc([N+](=O)[O-])cc2[N+](=O)[O-])c1`, for which the result was inactive.
Consider `CCOP1(=S)c2c(C)nn(CCC#N)c2N=C(c2ccccc2F)N1C` (stereo not drawn), for which the outcome was inactive.
Take `O=P(Nc1nccs1)(Oc1ccccc1)Oc1ccccc1`: the result was inactive.
For the molecule `O=P(Nc1nccs1)(c1ccccc1)c1nc2ccccc2s1` (stereo not drawn), the outcome was inactive.
Then `O=[As](O)(c1cccs1)c1cccs1`, with “inactive”; and `Cc1ccc(OCC(=O)OC2CN3CCC2CC3)cc1` (stereo not drawn), with “inactive”.
Then `O=P1(Nc2ccc(Br)cn2)COc2ccccc2OC1`, with “inactive”; and `CCCOc1ccc(NP(C)(=O)Oc2ccc(Cl)cc2)cc1` (stereo not drawn), with “inactive”.
As for `Nc1cccc([As](=O)(O)c2ccccc2)c1`, the result was inactive.
Take `CP(=O)(Nc1ccc(SC(F)(F)F)cc1)Oc1ccccc1` (stereo not drawn): the result was inactive.
In the case of `CN1CCCCC1COC(=O)C1(O)c2ccccc2CCc2ccccc21` (stereo not drawn), the outcome was inactive.
In the case of `COc1ccccc1OP(C)(=O)Nc1c(C)cccc1C` (stereo not drawn), the result was inactive.
For `O=P1(Nc2ncccn2)COc2ccccc2OC1`, the outcome was inactive.
Regarding `O=C(/C=C/c1ccccc1)OC1CN2CCC1CC2` (stereo not drawn), the result was inactive.
Consider `CC1=C2N=C(C=C3N=C(C(C)=C4[N-][C@@](C)([C@@H]5N=C1[C@](C)(CCC(=O)NC[C@@H](C)OP(=O)([O-])O[C@H]1[C@@H](O)[C@@H](n6cnc7cc(C)c(C)cc76)O[C@@H]1CO)[C@H]5CC(N)=O)[C@@](C)(CC(N)=O)[C@@H]4CCC(N)=O)[C@@](C)(CC(N)=O)[C@@H]3CCC(N)=O)C(C)(C)[C@@H]2CCC(N)=O.[C-]#N.[Co+3]`, for which the result was inactive.
Take `CN(C)C1(CNC(=O)c2ccc(S(C)(=O)=O)cc2)CCCCC1`: the result was inactive.
Then `O=[N+]([O-])c1cc([N+](=O)[O-])c(Nc2nnnn2CCO)c([N+](=O)[O-])c1`, with “inactive”.
Then `CCOC(=O)C(CC)C1=NC(C)(C)Cc2ccccc21.O=[N+]([O-])c1cc([N+](=O)[O-])c(O)c([N+](=O)[O-])c1` (stereo not drawn), with “inactive”.
For `COc1cc(C2NCCC3(OCCO3)C2(C)C)cc(OC)c1OC.O=[N+]([O-])c1cc([N+](=O)[O-])c(O)c([N+](=O)[O-])c1` (stereo not drawn), the result was inactive.
Then `Cc1nn(-c2ccccc2)c2c1P(=O)(N1CCOCC1)N(C)C(c1ccccc1)=N2` (stereo not drawn), with “inactive”.
Then `Cc1ccc(C(=O)OC2CN3CCC2CC3)cc1` (stereo not drawn), with “inactive”; and `CC1CCC(C(C)C)C(OP(=O)(Nc2ccccn2)c2ccccc2)C1` (stereo not drawn), with “inactive”; and `O=[As](O)(c1ccccc1Br)c1ccccc1Br`, with “inactive”.
With `Cc1nc2ccc3ccccc3c2s1.O=[N+]([O-])c1cc([N+](=O)[O-])c(O)c([N+](=O)[O-])c1`, the outcome was inactive.
In the case of `CC1(CBr)Cn2c(nc3ccccc3c2=O)S1` (stereo not drawn), the result was inactive.
As to `CN(C(=O)Cc1ccc(Cl)c(Cl)c1)[C@@H]1CCCC[C@H]1N1CCCC1`, the result was inactive.
Take `CC(C)/C=N\N=C(\N)N[N+](=O)[O-]`: the result was inactive.
For `COc1ccccc1CNC(=O)COC(=O)C(O)(c1ccccc1)c1ccccc1`, the outcome was inactive.
Regarding `O=[N+]([O-])c1cc([N+](=O)[O-])c(-c2cnn(-c3ccccc3)c2)c([N+](=O)[O-])c1`, the outcome was inactive.
Then `Clc1n[nH]nc1-c1nn[nH][15n]1`, with “inactive”; and `CC(C)(C)C(=O)NC(Sc1ncccn1)C(Cl)(Cl)Cl` (stereo not drawn), with “inactive”.
Then `CCOP(=O)(Nc1ccc(C)cn1)OCC`, with “inactive”.
As to `CN(CCCl)Cc1cc(Cl)c(NC2=NCCN2)c(Cl)c1`, the result was inactive.
Then `CCC1=CC2Cc3nc4ccc(Cl)cc4c(N)c3C(C1)C2` (stereo not drawn), with “inactive”; and `O=P1(Nc2ccccn2)COc2ccccc2OC1`, with “inactive”; and `O=[N+]([O-])c1cc([N+](=O)[O-])c(-n2nnc3ccccc32)c([N+](=O)[O-])c1`, with “inactive”.
Then `CCOP(=O)(NC(=NC(C)c1ccccc1)NC(C)c1ccccc1)OCC` (stereo not drawn), with “inactive”; and `CP(=O)(Nc1ccccn1)Oc1ccc(Cl)cc1` (stereo not drawn), with “inactive”.
Then `CCC(C)N(CC(C)C)C(=S)SC(NC(C)=O)C(Cl)(Cl)Cl` (stereo not drawn), with “inactive”; and `O=[N+]([O-])c1cc([N+](=O)[O-])c(O)c([N+](=O)[O-])c1.c1ccc(Oc2ccncc2)cc1`, with “inactive”; and `CCOC(=O)c1ccc(NC(=O)C(C)(CCl)SC)cc1` (stereo not drawn), with “inactive”.
`CCOC(=O)c1ccc(NP(C)(=O)Oc2ccc(OC)cc2)cc1` (stereo not drawn): the result was inactive.
Then `O=C(OC1CN2CCC1CC2)c1cccc([N+](=O)[O-])c1` (stereo not drawn), with “inactive”; and `CCOP(C)(=S)SCC(=O)NC(C)C(=O)O` (stereo not drawn), with “inactive”.
Take `CP(=O)(NC(=O)Nc1ccccc1)Oc1ccccc1` (stereo not drawn): the outcome was inactive.
Then `O=C(COc1ccccc1)OC1CN2CCC1CC2` (stereo not drawn), with “inactive”; and `CCc1ccc(OP(C)(=O)N2CCN(c3ccc([N+](=O)[O-])cc3)CC2)cc1` (stereo not drawn), with “inactive”; and `Cc1cc(C)cc(OP(C)(=O)Nc2ccc(SC(F)(F)F)cc2)c1` (stereo not drawn), with “inactive”.
Then `O=C(Nc1ccncc1[N+](=O)[O-])c1ccc([N+](=O)[O-])cc1[N+](=O)[O-]`, with “inactive”; and `COP1(=S)c2c(C)nn(CCC#N)c2N=C(c2ccc(F)cc2)N1C` (stereo not drawn), with “inactive”.
Then `CP(=O)(Nc1ccc(SC(F)(F)F)cc1)Oc1ccc(Cl)cc1` (stereo not drawn), with “inactive”; and `Cc1cccc(C)c1OP(C)(=O)Nc1ccc(SC(F)(F)F)cc1` (stereo not drawn), with “inactive”; and `CP(=O)(Oc1ccccc1)OC(c1ccccc1)C(F)(F)F` (stereo not drawn), with “inactive”.
As to `CP(=O)(Nc1ccccc1Br)Oc1ccccc1` (stereo not drawn), the result was inactive.
Then `O=[N+]([O-])c1ccc(Nc2ccc(Oc3ccc([N+](=O)[O-])cc3[N+](=O)[O-])cc2)c([N+](=O)[O-])c1`, with “inactive”.
For `Cc1cc(SC(NC=O)C(Cl)(Cl)Cl)ncn1` (stereo not drawn), the outcome was inactive.
In the case of `O=P(Nc1ccccn1)(c1cccc2ccccc12)c1cccc2ccccc12`, the outcome was inactive.
Take `COc1ccccc1OP(C)(=O)Nc1ccccc1` (stereo not drawn): the result was inactive.
For the molecule `CCOC(=O)Nc1cccc([As](=O)(O)O)c1`, the result was inactive.
Then `CP(=S)(Nn1cnnc1)Oc1ccccc1` (stereo not drawn), with “inactive”; and `Cc1cc(SC(NC(=O)c2ccccc2)C(Cl)(Cl)Cl)nc(C(C)C)n1` (stereo not drawn), with “inactive”.
Then `CCOC(=O)Nc1ccc([As](=O)(O)O)c(O)c1`, with “inactive”; and `Cc1cc(C)cc(OP(C)(N)=O)c1` (stereo not drawn), with “inactive”; and `CC(C)NC(=O)NP(=O)(Oc1ccccc1)Oc1ccccc1`, with “inactive”.
Then `COc1ccccc1OP(C)(=O)Nc1cc(Cl)ccc1C` (stereo not drawn), with “inactive”; and `CCN(CC)C(=S)SC(NC=O)C(Cl)(Cl)Cl` (stereo not drawn), with “inactive”.
Regarding `COc1ccc(OP(C)(=O)Nc2cccc(F)c2)cc1` (stereo not drawn), the outcome was inactive.
Consider `O=[N+]([O-])c1cc([N+](=O)[O-])c(-c2ccn[nH]2)s1`, for which the result was inactive.
Take `COc1ccccc1OP(C)(=O)Nc1ccc(C)cc1` (stereo not drawn): the result was inactive.
Regarding `CC(C)c1ccc(OP(=O)(Nc2ccccn2)Oc2ccccc2F)cc1` (stereo not drawn), the result was inactive.
For the molecule `Cc1ccc(NP(C)(=O)Oc2ccccc2)c(C)c1` (stereo not drawn), the outcome was inactive.
`CCOC(=O)c1ccc(NP(C)(=O)Oc2ccccc2)cc1` (stereo not drawn): the result was inactive.
For the molecule `ClCCSc1nnc(-c2cccnc2)o1`, the result was inactive.
Then `O=[N+]([O-])c1ccc2c(c1)C=Nc1ccccc1O2`, with “inactive”; and `Cc1ccc2nc3c(c(C)c2c1)CC(C(Cl)Cl)S3` (stereo not drawn), with “inactive”.
On to `Cc1ccc(OP(=O)(Nc2ccc([N+](=O)[O-])cn2)Oc2ccc(C)cc2)cc1`, for which the result was inactive.
Consider `CC(C)(C)c1ccc(OP(C)(=O)Nc2ccc(SC(F)(F)F)cc2)cc1` (stereo not drawn), for which the outcome was inactive.
Then `Cc1cccc(C)c1OP(C)(N)=O` (stereo not drawn), with “inactive”; and `O=[As](O)(c1ccc(O)cc1)c1ccccc1O`, with “inactive”.
`C[As](=O)(O)c1cccc(C(=O)O)c1`: the outcome was inactive.
Then `O=[N+]([O-])c1cc([N+](=O)[O-])c(Nc2cccnc2)c([N+](=O)[O-])c1`, with “inactive”.
